Target: T1, glucocorticoid receptor (Rattus norvegicus, UniProt P06536)
T1 sequence (P06536 1-795): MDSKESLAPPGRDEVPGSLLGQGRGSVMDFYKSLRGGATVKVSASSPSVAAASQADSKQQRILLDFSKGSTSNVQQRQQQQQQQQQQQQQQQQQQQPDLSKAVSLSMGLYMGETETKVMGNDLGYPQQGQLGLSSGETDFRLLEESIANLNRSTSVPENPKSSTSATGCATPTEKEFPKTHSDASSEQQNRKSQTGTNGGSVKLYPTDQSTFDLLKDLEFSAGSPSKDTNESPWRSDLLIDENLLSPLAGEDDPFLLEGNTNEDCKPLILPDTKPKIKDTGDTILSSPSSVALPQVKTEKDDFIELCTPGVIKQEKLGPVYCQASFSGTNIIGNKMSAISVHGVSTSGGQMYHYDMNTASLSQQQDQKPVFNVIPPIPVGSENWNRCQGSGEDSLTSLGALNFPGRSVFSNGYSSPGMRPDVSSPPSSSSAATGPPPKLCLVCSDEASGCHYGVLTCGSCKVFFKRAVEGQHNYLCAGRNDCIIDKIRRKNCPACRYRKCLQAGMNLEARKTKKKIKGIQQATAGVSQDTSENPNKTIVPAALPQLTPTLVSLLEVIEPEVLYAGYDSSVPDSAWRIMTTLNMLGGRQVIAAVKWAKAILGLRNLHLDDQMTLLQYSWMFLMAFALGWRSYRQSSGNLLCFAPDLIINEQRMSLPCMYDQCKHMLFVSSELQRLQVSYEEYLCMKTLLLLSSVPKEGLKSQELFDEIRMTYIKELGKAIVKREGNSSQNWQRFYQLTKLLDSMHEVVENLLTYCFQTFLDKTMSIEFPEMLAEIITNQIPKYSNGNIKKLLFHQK
Assay: Glucocorticoid activity bioassay, CC1 cells cotransfected with GRE2-TATA-Luc and glucocorticoid receptor expression plasmid
Type: cell-based
Parameters: expressed in transfected cells; host or cells: CC1 cells (permanent rat liver cell line), transiently cotransfected with pSTC-rGR and GRE2-TATA-Luc
Procedure: These cell lines contain endogenous glucocorticoid receptors. Here, steroid concentration—in this case corticosterone concentration—determines the extent of glucocorticoid activity. […] Induction time: 24 h (see also example 12).
Thus, the following examples always concern transit ntly cotransfected CC1or MH 3924 cell.

6α-Methyl-17α-hydroxy-progesterone [medroxyprogesterone]
glucocorticoid activity (luciferase induction) (different concentrations, induction time 24 h): very active | glucocorticoid activity of synthetic gestagen (induction times of 10 to 30 min also sufficient): glucocorticoid activity of this material was detected

Source: patent US20040023264A1, “Method for determining the peptide hormone activities or the steroid hormone activities of a material or substance mixture” (priority 2000, published 2004)
